Experimental data: ChEMBL document CHEMBL1151742, “Design, synthesis, and characterization of high-affinity, systemically-active galanin analogues with potent anticonvulsant activities” (J Med Chem, 2008)

Biological target: T1, Galanin receptor type 3 (Homo sapiens, UniProt O60755)
T1 sequence (O60755 whole entry): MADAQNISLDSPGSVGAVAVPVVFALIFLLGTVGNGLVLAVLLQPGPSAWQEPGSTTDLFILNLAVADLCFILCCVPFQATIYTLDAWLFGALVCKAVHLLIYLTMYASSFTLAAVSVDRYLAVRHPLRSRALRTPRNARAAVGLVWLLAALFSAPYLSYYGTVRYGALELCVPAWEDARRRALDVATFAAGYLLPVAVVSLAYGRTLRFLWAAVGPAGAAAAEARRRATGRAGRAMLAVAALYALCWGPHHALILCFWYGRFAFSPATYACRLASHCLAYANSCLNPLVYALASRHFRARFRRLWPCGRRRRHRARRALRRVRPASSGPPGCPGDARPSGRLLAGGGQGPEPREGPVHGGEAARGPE
Test: Binding affinity to human GalR3

- Kd: 315 nM
Structure (SMILES): CC[C@H](C)[C@H](NC(=O)[C@H](C)NC(=O)[C@H](Cc1cnc[nH]1)NC(=O)[C@@H]1CCCN1C(=O)CNC(=O)[C@H](CC(C)C)NC(=O)[C@H](CC(C)C)NC(=O)[C@H](Cc1ccc(O)cc1)NC(=O)CNC(=O)[C@H](C)NC(=O)[C@H](CO)NC(=O)[C@H](CC(N)=O)NC(=O)[C@H](CC(C)C)NC(=O)[C@@H](NC(=O)[C@H](Cc1c[nH]c2ccccc12)NC(=O)CN)[C@@H](C)O)C(=O)O
